Results taken from patent EP4578862A1.

Chains of the proteins cited; added tags and fusions are not shown.
UniProt O14744, whole entry: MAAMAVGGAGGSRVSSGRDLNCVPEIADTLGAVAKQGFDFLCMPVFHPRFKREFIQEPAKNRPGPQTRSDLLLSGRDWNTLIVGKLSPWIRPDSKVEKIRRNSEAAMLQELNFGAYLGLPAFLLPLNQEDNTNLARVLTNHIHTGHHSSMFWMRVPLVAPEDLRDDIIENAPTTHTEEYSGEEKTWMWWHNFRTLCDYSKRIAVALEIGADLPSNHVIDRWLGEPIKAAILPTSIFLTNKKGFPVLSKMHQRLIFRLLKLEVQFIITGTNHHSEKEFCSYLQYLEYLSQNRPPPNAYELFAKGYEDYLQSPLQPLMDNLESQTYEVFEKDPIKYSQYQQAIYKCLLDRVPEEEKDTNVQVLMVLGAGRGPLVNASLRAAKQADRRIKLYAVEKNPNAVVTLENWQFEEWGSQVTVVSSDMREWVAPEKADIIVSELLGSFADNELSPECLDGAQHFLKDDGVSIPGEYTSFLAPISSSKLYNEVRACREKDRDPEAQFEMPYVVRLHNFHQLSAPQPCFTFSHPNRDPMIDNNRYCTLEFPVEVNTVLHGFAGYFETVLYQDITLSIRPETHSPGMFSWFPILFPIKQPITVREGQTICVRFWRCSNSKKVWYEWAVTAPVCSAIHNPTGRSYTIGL
UniProt Q9BQA1, whole entry partner: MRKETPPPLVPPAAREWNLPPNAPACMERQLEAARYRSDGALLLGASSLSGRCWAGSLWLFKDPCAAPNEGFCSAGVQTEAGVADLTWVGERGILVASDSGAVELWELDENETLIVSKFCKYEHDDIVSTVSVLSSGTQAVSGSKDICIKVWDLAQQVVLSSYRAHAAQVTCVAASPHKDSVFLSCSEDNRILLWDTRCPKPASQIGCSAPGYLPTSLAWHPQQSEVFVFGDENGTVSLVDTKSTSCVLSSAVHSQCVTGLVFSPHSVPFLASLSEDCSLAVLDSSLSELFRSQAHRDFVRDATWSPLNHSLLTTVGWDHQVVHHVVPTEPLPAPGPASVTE

How the values were obtained:
[1] = Plasma protein binding rate assay (equilibrium dialysis), human plasma; conditions: H (human) plasma, 2 µM, 4 hours dialysis, tested form: free base
[2] = tested on: human large cell lung cancer LU99; test: Antitumor activity test in BALB/c nude mouse subcutaneous xenograft tumor model of LU99; conditions: day 19, tested form: free base
[3] = Plasma protein binding rate assay (equilibrium dialysis), dog plasma; conditions: D (dog) plasma, 2 µM, 4 hours dialysis, tested form: free base
[4] = Pharmacokinetic evaluation in mice (plasma, IV and PO); conditions: tested form: free base
HCT116 WT = test: In vitro detection of SDMA levels in HCT116 WT cells
LU99 cells = test: LU99 cell proliferation inhibition assay (CellTiter-Glo); conditions: read-out: Antiproliferative activity IC50 (nM) in LU99 cell, incubated for 6 days, 10 µM to 0.128 nM, tested form: free base
PRMT5·MTA = PRMT5·MTA (Homo sapiens, UniProt O14744); test: PRMT5·MTA enzyme inhibitory activity assay (LANCE Ultra TR-FRET); conditions: read-out: PRMT5-MTA inhibitory activity IC50, buffer with MTA 2.6 µM, SAM 1.3 µM, tested form: free base
HCT116 MTAP KO = test: In vitro detection of SDMA levels in HCT116 MTAP KO cells
[5] = Plasma protein binding rate assay (equilibrium dialysis), mouse plasma; conditions: M (mouse) plasma, 2 µM, 4 hours dialysis, tested form: free base
[6] = Plasma protein binding rate assay (equilibrium dialysis), rat plasma; conditions: R (rat) plasma, 2 µM, 4 hours dialysis, tested form: free base
[7] = tested on: MDCKII-MDR1 monolayer cell; test: In vitro MDCKII-MDR1 monolayer cell permeability test; conditions: 50 µM, 150 minutes, pH 7.40, tested form: free base
[8] = IV, 1 mg/kg, single enantiomer separated b
[9] = read-out: SDMA IC50, cultured for 4 days, tested form: free base, single enantiomer separated b
[10] = read-out: SDMA IC50, cultured for 4 days, tested form: free base, single stereoisomer (one of 3)

## C#Cc1ccc2c(c1)OCC2N(C)C(=O)c1cc2c(cc1F)nc(N)c1cnn(C)c12 (centres unmarked)
[1]; single enantiomer separated b
  PPB_unbound: 1.4%
[2]; Dosing regimen 1, 7.5 mpk p.o. QD, single enantiomer separated b
  TGI: 87%
[2]; Dosing regimen 1, 15 mpk p.o. QD, single enantiomer separated b
  TGI: 100%
[3]; single enantiomer separated b
  PPB_unbound: 1.5%
[4]; [8]
  Tlast: 8 h
[4]; PO, 2 mg/kg, single enantiomer separated b
  Tlast: 24 h
HCT116 WT; [9]
  IC50: 53.1 nM
LU99 cells; single enantiomer separated b
  IC50: 2.9 nM
PRMT5·MTA; single enantiomer separated b
  IC50: 1.8 nM
HCT116 MTAP KO; [9]
  IC50: 0.2 nM
[5]; single enantiomer separated b
  PPB_unbound: 0.6%
[6]; single enantiomer separated b
  PPB_unbound: 0.5%
[7]; single enantiomer separated b
  Apparent permeability coefficient (A to B): 6.38 10^-6 cm/s

## C#Cc1ccc2c(n1)COCC2N(C)C(=O)c1cc2c(cc1F)nc(N)c1cnn(C)c12 (centres unmarked)
[1]; single enantiomer separated b
  PPB_unbound: 7.7%
[2]; Dosing regimen 2, 5 mpk p.o. QD, single enantiomer separated b
  TGI: 84%
[2]; Dosing regimen 2, 15 mpk p.o. QD, single enantiomer separated b
  TGI: 89%
[2]; Dosing regimen 2, 50 mpk p.o. QD, single enantiomer separated b
  TGI: 103%
[3]; single enantiomer separated b
  PPB_unbound: 17.2%
[4]; [8]
  Tlast: 6 h
HCT116 WT; [9]
  IC50: 44 nM
LU99 cells; single enantiomer separated b
  IC50: 3.1 nM
PRMT5·MTA; single enantiomer separated b
  IC50: 2.2 nM
HCT116 MTAP KO; [9]
  IC50: 0.1 nM
[5]; single enantiomer separated b
  PPB_unbound: 10.3%
[7]; single enantiomer separated b
  Apparent permeability coefficient (A to B): 8.15 10^-6 cm/s

## C#Cc1ccc2c(n1)C(C)OCC2N(C)C(=O)c1cc2c(cc1F)nc(N)c1cnn(C)c12 (centres unmarked)
[1]; single stereoisomer (one of 3)
  PPB_unbound: 5.8%
[2]; Dosing regimen 2, 5 mpk p.o. QD, single stereoisomer (one of 3)
  TGI: 68%
[2]; Dosing regimen 2, 15 mpk p.o. QD, single stereoisomer (one of 3)
  TGI: 93%
[2]; Dosing regimen 2, 50 mpk p.o. QD, single stereoisomer (one of 3)
  TGI: 102%
[3]; single stereoisomer (one of 3)
  PPB_unbound: 4.3%
[4]; IV, 1 mg/kg, single stereoisomer (one of 3)
  Tlast: 8 h
HCT116 WT; [10]
  IC50: 10.7 nM
LU99 cells; single stereoisomer (one of 3)
  IC50: 1.9 nM
PRMT5·MTA; single stereoisomer (one of 3)
  IC50: 2.2 nM
HCT116 MTAP KO; [10]
  IC50: 1.2 nM
[5]; single stereoisomer (one of 3)
  PPB_unbound: 3.4%
[6]; single stereoisomer (one of 3)
  PPB_unbound: 6.9%
[7]; single stereoisomer (one of 3)
  Apparent permeability coefficient (A to B): 9.39 10^-6 cm/s

Where two headings read alike, the source gives them in different places.
